Measured values as given in US20230218559A1, “Compositions and Methods for Treating Aging and Age-Related Diseases and Symptoms” (The Regents of the University of California, priority 2014, published 2023).

The chains behind the UniProt entries cited, without tags or fusion partners. Where a name states a change or a piece, a line headed by the entry shows the natural chain unless it says otherwise.
UniProt Q9GZT9: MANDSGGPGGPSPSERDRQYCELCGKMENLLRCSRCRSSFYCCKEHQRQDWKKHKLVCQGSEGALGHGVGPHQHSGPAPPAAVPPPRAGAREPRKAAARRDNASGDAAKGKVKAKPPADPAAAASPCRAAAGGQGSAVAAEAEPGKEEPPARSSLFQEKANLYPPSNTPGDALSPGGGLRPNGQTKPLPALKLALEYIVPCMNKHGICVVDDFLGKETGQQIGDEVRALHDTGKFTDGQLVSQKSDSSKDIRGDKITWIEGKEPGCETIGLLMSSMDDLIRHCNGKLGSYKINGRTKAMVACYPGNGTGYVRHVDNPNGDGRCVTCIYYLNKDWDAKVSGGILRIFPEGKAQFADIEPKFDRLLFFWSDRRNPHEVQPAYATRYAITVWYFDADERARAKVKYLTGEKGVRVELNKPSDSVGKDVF

Biological target: T1, PHD-2/Eglnl (Homo sapiens, UniProt Q9GZT9)
T1 construct: HeLa cells were lysed in M-PER buffer; endogenous in cells; host or cells: HeLa
Test: DARTS for PHD-2 in HeLa lysate
Format: binding

O=C(O)CCC(=O)C(=O)O [α-KG, α-ketoglutarate]
binding to PHD-2 by DARTS: confirmed
